Results taken from patent publication US20070036775A1, “Method of modulating or examining Ku70 levels in cells” (priority 2001, published 2007).

Amino acid sequences for entries named in this document (tags omitted).
UniProt Q07812, whole entry: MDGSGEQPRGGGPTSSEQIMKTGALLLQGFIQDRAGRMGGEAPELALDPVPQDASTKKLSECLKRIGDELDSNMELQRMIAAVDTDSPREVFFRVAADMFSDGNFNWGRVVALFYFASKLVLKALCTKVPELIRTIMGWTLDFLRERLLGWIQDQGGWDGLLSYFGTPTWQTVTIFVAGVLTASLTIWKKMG

Target: T1, Bax (Homo sapiens, UniProt Q07812)
T1 construct: expressed in transfected cells; host or cells: HEK293T
Test: Co-immunoprecipitation of Flag-tagged Ku70 constructs and Bax
Format: binding
Conditions: HEK293T cells, Flag-tagged constructs, 50 uM z-VAD-fmk, Chaps-based buffer
Experimental: FIG. 4. Interaction of Ku70 and Bax. FIGS. 4A and B: Co-immunoprecipitation of endogenous Ku70 and Bax. HEK293T cells were lysed in the hypotonic buffer without detergent. Immunoprecipitation was also performed in detergent free buffer as described in Experimental Procedure. Immunoprecipitation was performed with (FIG. 4A) anti-Bax rabbit polyclonal antibody or (FIG. 4B) anti-Ku70 mouse monoclonal antibody as described in Experimental Procedure. Pre-immune rabbit serum (NRS) and mouse IgG were used as negative controls. Western blot analyses of pre-immunoprecipitation (Input) and immunoprecipitated samples (IP) were performed by anti-Ku70 monoclonal antibody or anti-Bax polyclonal antibody. (FIG. 4C) Co-immunoprecipitation of GFP-Bax and Ku70. HEK293T cells (10^6 cells) were transfected with 1.0 μg of PEGFP (GFP), pEGFP-Baxwt (GFP-Baxwt), pEGFP-Bax-ΔN (GFP-BaxΔN), pEGFP-Bax-Δα9 (GFP-BaxΔα9) or pEGFP-Bax-Δα2 (GFP-BaxΔα2) in the presence of 50 μM z-VAD-fmk. One day following transfection, cells were collected and co-immunoprecipitation experiments of GFP-Bax and endogenous Ku70 were performed as described in Experimental Procedure. Anti-GFP polyclonal antibody was used for immunoprecipitation and detection of GFP-fused proteins, and anti-Ku70 monoclonal antibody for the detection of Ku70. (FIG. 4D) Co-immunoprecipitation of Flag-tagged-Ku70 and endogenous Bax. […]

With “Ku70: human full length Ku70, 70 kDa subunit of Ku-complex (609 amino acids), expressed from pCMV-2B plasmid” the “binding to Bax (co-immunoprecipitation)” value was “bound to Bax”.
